{"source": "paper PMC5944968", "about": "“A multi-chamber microfluidic intestinal barrier model using Caco-2 cells for drug transport studies” (PLoS ONE, 2018)", "tested_on": "Caco-2 monolayers", "test": "Permeability studies across Caco-2 monolayers in microfluidic device", "settings": "microfluidic day 9 or 10 vs Transwell day 14, without TDM", "experimental": "Buffer^+ was prepared by mixing Hank’s Buffered Saline solution (HBSS; Gibco, Denmark), 0.1% (wt/vol) OVA (ovalbumin; from chicken egg white, Sigma, Denmark) and 10 mM HEPES (HEPES; Sigma, Denmark) at pH 7.4.\nThe Caco-2 translocation of peptide, [^3H]mannitol or Rh 123 over Caco-2 layers is expressed as the apparent permeability (Papp), given by: Papp=dQ/dt1/AC0 (2) Where dQ/dt is the steady-state flux across the cell layer (pmol/s), A is the surface area (1.12 cm^2 for Transwell, 0.1 cm^2 for microfluidic), and C0 is the initial sample concentration.", "data": [{"substance": "fluorescein isothiocyanate (FITC)-labeled dextran [FD-4]", "values": [{"measurement": "Papp in microfluidic chip compared to static Transwell cultures", "result": "slightly higher (not significant)"}]}, {"substance": "insulin", "values": [{"measurement": "Papp in microfluidic chip compared to static Transwell cultures", "result": "slightly higher (not significant)"}]}]}
